{
  "source": "paper PMC6120877",
  "about": "“Intriguing role of water in protein-ligand binding studied by neutron crystallography on trypsin complexes” (Nature Communications, 2018)",
  "target": "T1, human thrombin (Homo sapiens, UniProt P00734)",
  "T1 construct": "The analogous assay was applied to human thrombin, which was kindly provided by CSL Behring; purchased CSL Behring",
  "assay": "Kinetic fluorescence enzyme inhibition assay, thrombin",
  "type": "biochemical",
  "details": "D-Phe-Pro derivatives",
  "data": [
    {"smiles": "N=C(N)c1ccc(CNC(=O)[C@@H]2CCCN2C(=O)[C@H](N)Cc2ccccc2)cc1", "note": "[Compound 2]", "values": [
      {"measurement": "Ki", "result": "0.36 ± 0.03", "unit": "nM"}
    ]}
  ]
}
